Reference: patent publication US20260384438A1, “PYRROLOPYRIMIDINE CARBOXAMIDES” (published 2026)

By UniProt entry, the sequences of proteins in these tests, tags left out.
UniProt Q92918, whole entry: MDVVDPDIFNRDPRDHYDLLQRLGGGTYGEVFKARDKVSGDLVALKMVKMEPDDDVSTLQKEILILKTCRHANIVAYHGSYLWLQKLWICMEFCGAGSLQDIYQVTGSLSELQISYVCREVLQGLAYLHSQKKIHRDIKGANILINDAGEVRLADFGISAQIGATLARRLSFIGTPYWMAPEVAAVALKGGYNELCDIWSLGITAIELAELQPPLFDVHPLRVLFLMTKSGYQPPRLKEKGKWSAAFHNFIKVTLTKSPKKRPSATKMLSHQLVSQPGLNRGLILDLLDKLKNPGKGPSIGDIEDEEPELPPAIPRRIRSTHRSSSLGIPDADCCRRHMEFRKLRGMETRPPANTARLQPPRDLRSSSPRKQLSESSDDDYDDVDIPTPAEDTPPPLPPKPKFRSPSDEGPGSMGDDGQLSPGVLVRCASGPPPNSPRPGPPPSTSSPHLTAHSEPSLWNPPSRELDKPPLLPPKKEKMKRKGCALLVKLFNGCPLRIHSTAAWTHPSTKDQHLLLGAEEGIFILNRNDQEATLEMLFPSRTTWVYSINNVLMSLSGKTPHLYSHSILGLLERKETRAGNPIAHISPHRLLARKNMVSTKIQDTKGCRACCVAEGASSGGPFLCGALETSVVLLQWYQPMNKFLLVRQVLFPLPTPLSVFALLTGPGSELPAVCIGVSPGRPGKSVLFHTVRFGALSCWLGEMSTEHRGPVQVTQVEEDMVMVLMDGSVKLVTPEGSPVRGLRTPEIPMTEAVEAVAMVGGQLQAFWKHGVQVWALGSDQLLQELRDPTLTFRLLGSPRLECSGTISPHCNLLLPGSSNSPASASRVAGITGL
UniProt Q99640, whole entry: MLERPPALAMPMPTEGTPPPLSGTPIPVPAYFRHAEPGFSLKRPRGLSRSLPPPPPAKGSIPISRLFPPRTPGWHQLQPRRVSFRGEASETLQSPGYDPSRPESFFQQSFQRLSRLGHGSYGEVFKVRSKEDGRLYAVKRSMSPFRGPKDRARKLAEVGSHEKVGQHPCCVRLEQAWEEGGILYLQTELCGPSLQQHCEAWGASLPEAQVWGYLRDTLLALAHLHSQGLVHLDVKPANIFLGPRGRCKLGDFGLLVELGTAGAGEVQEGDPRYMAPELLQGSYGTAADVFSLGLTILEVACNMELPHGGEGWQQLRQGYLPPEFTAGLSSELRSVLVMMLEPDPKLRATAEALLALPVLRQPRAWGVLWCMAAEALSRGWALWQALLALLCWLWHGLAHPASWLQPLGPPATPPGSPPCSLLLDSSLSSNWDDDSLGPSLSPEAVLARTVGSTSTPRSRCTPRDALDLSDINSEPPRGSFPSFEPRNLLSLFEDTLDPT
UniProt P15056, whole entry: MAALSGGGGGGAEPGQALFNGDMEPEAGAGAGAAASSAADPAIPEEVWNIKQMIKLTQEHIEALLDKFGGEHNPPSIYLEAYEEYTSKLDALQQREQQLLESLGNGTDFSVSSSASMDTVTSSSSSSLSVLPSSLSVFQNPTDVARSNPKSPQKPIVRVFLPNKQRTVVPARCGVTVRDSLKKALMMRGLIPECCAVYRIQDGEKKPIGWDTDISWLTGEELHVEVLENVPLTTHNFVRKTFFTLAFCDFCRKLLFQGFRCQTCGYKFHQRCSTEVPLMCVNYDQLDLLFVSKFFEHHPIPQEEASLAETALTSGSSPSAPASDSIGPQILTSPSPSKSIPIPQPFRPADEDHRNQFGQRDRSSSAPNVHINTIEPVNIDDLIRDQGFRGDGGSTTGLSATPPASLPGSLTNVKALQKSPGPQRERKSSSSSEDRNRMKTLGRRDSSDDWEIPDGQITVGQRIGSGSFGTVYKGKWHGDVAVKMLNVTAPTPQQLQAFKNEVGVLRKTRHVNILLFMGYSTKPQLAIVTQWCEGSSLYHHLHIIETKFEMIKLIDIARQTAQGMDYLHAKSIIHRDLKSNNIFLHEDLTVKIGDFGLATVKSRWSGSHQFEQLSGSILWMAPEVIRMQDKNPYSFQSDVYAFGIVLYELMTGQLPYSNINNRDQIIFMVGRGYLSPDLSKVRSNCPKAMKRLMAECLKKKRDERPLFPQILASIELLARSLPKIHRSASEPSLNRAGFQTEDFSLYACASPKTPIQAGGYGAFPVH
UniProt Q9NYL2, whole entry: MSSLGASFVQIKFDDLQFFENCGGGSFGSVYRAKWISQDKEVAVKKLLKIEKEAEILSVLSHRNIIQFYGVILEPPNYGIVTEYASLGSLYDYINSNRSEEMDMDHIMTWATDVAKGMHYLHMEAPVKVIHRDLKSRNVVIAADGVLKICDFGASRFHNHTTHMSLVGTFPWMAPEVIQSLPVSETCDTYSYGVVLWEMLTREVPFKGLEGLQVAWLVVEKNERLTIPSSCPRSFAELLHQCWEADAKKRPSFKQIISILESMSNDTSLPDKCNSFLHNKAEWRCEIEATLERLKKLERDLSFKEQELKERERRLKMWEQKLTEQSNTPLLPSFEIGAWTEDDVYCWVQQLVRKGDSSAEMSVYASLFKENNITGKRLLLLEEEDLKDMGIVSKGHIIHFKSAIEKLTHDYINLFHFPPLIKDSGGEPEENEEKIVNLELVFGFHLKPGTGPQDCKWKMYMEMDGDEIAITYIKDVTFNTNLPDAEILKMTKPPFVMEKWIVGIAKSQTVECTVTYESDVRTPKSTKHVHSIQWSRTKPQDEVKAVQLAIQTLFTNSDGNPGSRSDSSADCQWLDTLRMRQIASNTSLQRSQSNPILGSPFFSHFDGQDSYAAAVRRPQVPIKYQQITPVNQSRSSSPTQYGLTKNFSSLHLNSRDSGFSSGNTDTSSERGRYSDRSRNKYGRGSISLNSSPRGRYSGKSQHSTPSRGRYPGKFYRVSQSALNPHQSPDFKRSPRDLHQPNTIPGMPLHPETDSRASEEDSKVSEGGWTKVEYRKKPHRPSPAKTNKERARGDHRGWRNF
UniProt Q9UPZ9, whole entry: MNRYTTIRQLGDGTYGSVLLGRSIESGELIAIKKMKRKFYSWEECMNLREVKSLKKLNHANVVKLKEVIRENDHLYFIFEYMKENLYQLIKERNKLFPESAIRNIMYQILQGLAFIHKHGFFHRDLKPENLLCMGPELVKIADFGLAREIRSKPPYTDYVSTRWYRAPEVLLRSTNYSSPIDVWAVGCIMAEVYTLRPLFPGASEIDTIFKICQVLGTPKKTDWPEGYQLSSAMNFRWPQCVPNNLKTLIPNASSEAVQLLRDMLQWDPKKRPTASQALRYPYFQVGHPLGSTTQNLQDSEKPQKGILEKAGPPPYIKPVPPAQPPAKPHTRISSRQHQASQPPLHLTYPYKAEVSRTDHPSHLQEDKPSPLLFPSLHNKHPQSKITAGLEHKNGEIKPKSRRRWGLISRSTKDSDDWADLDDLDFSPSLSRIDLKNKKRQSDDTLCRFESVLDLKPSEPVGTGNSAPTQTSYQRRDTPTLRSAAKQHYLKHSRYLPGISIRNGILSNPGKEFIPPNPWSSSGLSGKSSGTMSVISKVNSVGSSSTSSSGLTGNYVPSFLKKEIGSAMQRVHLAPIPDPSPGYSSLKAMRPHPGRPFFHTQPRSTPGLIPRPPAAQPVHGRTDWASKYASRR
UniProt Q7L7X3, whole entry: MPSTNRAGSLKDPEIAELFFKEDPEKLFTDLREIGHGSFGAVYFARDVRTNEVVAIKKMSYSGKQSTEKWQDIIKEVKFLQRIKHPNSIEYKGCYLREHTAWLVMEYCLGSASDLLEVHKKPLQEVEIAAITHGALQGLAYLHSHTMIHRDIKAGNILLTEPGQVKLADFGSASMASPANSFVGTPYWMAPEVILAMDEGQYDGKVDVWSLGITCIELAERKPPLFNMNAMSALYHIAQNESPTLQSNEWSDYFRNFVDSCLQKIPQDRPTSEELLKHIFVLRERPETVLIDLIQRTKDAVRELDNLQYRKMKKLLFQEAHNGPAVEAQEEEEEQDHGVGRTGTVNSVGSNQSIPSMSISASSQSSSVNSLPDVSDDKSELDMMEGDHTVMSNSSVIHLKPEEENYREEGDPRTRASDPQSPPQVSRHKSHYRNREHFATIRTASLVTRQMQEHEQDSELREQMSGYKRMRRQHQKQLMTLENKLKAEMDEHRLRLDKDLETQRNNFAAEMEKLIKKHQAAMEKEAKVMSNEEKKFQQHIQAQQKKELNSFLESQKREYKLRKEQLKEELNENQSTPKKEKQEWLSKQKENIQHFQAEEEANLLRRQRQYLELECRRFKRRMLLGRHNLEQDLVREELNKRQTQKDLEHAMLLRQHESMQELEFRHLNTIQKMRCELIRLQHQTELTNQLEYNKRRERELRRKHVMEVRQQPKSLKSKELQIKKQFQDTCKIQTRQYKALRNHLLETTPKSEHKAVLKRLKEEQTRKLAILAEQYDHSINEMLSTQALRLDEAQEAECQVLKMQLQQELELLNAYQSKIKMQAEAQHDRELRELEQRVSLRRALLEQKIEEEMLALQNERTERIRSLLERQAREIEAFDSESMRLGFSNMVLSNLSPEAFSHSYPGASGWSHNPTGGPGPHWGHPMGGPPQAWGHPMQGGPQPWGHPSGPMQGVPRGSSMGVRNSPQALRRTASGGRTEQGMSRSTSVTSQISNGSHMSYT
UniProt Q14004, whole entry: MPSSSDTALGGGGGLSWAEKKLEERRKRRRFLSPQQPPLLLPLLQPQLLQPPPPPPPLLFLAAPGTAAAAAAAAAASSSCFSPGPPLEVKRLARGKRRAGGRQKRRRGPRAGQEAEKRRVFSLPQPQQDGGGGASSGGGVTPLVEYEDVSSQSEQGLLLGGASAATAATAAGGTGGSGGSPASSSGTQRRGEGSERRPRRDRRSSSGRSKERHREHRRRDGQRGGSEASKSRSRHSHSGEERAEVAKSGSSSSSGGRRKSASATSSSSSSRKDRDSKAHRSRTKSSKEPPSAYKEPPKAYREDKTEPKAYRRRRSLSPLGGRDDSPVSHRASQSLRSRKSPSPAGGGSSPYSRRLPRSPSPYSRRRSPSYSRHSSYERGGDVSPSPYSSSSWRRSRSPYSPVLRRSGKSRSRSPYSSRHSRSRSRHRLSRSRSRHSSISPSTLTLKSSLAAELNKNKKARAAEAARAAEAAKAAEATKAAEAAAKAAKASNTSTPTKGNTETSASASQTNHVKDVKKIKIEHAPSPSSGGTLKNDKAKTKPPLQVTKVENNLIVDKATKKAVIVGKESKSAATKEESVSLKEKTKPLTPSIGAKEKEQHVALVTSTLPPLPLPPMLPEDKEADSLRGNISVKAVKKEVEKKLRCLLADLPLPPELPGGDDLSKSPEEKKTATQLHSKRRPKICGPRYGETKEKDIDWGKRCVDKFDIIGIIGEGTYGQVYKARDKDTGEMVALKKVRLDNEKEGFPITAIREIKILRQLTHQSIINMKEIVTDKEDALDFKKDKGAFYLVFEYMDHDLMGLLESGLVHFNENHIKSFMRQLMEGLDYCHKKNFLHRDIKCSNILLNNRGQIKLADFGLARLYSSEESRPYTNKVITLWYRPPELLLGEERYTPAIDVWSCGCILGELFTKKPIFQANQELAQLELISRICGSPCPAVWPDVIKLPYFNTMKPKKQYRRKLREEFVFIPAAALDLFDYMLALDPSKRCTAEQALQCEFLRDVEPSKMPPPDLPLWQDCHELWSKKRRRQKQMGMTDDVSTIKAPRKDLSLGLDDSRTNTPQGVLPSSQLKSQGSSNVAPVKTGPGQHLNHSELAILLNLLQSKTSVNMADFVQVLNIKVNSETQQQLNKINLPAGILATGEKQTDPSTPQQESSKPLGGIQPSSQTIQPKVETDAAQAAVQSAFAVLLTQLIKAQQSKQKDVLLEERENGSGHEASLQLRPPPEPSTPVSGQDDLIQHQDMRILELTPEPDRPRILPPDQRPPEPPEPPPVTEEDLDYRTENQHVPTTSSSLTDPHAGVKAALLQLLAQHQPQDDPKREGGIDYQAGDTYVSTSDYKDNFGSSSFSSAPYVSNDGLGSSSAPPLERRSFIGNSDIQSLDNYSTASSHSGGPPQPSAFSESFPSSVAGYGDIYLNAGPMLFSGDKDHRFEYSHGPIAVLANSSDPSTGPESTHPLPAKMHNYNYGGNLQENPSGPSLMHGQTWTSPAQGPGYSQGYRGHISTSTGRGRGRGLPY
UniProt Q86Y07, whole entry: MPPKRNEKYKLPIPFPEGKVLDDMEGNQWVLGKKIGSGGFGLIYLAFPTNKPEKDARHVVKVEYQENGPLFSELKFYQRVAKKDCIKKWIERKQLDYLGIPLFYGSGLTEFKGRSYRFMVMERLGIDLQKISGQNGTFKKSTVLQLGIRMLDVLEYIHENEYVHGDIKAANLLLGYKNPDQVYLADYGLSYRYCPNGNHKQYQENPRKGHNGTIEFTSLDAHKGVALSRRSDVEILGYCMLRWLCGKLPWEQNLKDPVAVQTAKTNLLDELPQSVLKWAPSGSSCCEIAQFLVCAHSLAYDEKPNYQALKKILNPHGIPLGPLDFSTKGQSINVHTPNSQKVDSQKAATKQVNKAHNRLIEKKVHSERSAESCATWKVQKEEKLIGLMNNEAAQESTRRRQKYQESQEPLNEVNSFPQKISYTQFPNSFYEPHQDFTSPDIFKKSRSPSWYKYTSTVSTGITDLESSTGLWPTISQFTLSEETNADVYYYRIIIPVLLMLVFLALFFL

How the values were obtained:
Experiment in all cases: Kinase profiling, Lantha
TNK2 (ACK) = TNK2 (ACK) (Homo sapiens, UniProt Q07912); details: 1 μM, KmATP
PKN2 (PRK2) = PKN2 (PRK2) (Homo sapiens, UniProt Q16513); details: 1 μM, KmATP
ACVR2A = ACVR2A (Homo sapiens, UniProt P27037); details: 1 μM, KmATP
MAP4K1 (HPK1) = MAP4K1 (HPK1) (Homo sapiens, UniProt Q92918); details: 1 μM, KmATP
NEK8 = NEK8 (Homo sapiens, UniProt Q86SG6); details: 1 μM, KmATP
PKMYT1 = PKMYT1 (Homo sapiens, UniProt Q99640)
STK17B (DRAK2) = STK17B (DRAK2) (Homo sapiens, UniProt O94768); details: 1 μM, KmATP
STK38 = STK38 (Homo sapiens, UniProt Q15208); details: 1 μM, KmATP
CDK2/cyclin A1 = CDK2/cyclin A1 (Homo sapiens, UniProt P24941); details: 1 μM, KmATP
RIPK3 = RIPK3 (Homo sapiens, UniProt Q9Y572); details: 1 μM, KmATP
CDK11 Cyclin C = details: 1 μM, KmATP
bRAF = bRAF (Homo sapiens, UniProt P15056)
WEE1 = WEE1 (Homo sapiens, UniProt P30291)
ZAK = ZAK (Homo sapiens, UniProt Q9NYL2); details: 1 μM, KmATP
TESK1 = TESK1 (Homo sapiens, UniProt Q15569); details: 1 μM, KmATP
AMPK (A2/B2/G1) = AMPK (A2/B2/G1) (Homo sapiens, UniProt P54646); details: 1 μM, KmATP
MYO3A (MYO3 alpha) = MYO3A (MYO3 alpha) (Homo sapiens, UniProt Q8NEV4); details: 1 μM, KmATP
MASTL = MASTL (Homo sapiens, UniProt Q96GX5); details: 1 μM, KmATP
MAP2K2 (MEK2) = MAP2K2 (MEK2) (Homo sapiens, UniProt P36507); details: 1 μM, KmATP
ULK2 = ULK2 (Homo sapiens, UniProt Q8IYT8); details: 1 μM, KmATP
WNK3 = WNK3 (Homo sapiens, UniProt Q9BYP7); details: 1 μM, KmATP
FYN A = FYN A (Homo sapiens, UniProt P06241)
ERN1 = ERN1 (Homo sapiens, UniProt O75460); details: 1 μM, KmATP
TGFBR2 = TGFBR2 (Homo sapiens, UniProt P37173); details: 1 μM, KmATP
TLK1 = TLK1 (Homo sapiens, UniProt Q9UKI8); details: 1 μM, KmATP
ICK = ICK (Homo sapiens, UniProt Q9UPZ9)
TAOK1 = TAOK1 (Homo sapiens, UniProt Q7L7X3); details: 1 μM, KmATP
WNK2 = WNK2 (Homo sapiens, UniProt Q9Y3S1); details: 1 μM, KmATP
STK32B (YANK2) = STK32B (YANK2) (Homo sapiens, UniProt Q9NY57); details: 1 μM, KmATP
MYLK (MLCK) = MYLK (MLCK) (Homo sapiens, UniProt Q15746); details: 1 μM, KmATP
CDK13 Cyclin K = CDK13 Cyclin K (Homo sapiens, UniProt Q14004); details: 1 μM, KmATP
TNIK = TNIK (Homo sapiens, UniProt Q9UKE5); details: 1 μM, KmATP
BMPR1A (ALK3) = BMPR1A (ALK3) (Homo sapiens, UniProt P36894)
CDK2/Cyclin E1 = CDK2/Cyclin E1 (Homo sapiens, UniProt P24941); details: 1 μM, KmATP
MAP3K2 (MEKK2) = MAP3K2 (MEKK2) (Homo sapiens, UniProt Q9Y2U5); details: 1 μM, KmATP
MKNK2 (MNK2) = MKNK2 (MNK2) (Homo sapiens, UniProt Q9HBH9); details: 1 μM, KmATP
ACVR2B = ACVR2B (Homo sapiens, UniProt Q13705)
VRK2 = VRK2 (Homo sapiens, UniProt Q86Y07); details: 1 μM, KmATP
EPHA3 = EPHA3 (Homo sapiens, UniProt P29320)

With `Cc1nc(C(F)(F)F)c2c(C(N)=O)c(N)n(-c3c(C)ccc(O)c3C)c2n1` (single isomer, unassigned) as the compound, how does the “MEAN INHIBITION” value (TNK2 (ACK)) read?
Its value is 45.685%.

And the “MEAN INHIBITION” value (PKN2 (PRK2))?
Its value is 3.734%.

What about the “MEAN INHIBITION” value (ACVR2A) of the same compound?
Its value is 49.464%.

What about the “MEAN INHIBITION” value (MAP4K1 (HPK1)) of the same compound?
The value was −0.865%.

What about the “MEAN INHIBITION” value (NEK8) of the same compound?
The value was 3.787%.

And the “MEAN INHIBITION” value (PKMYT1; 1 μM, KmATP)?
Its value is 97.172%.

And the IC50 (PKMYT1; 10-point CR, top 10 μM)?
The IC50 was 3 nM.

What about the “MEAN INHIBITION” value (STK17B (DRAK2)) of the same compound?
The value was 9.903%.

And the “MEAN INHIBITION” value (STK38)?
The value was 4.799%.

And the “MEAN INHIBITION” value (CDK2/cyclin A1)?
The value was 11.556%.

And the “MEAN INHIBITION” value (RIPK3)?
Its value is 23.832%.

What about the “MEAN INHIBITION” value (CDK11 Cyclin C) of the same compound?
Its value is 35.689%.

What about the “MEAN INHIBITION” value (bRAF; 1 μM, KmATP) of the same compound?
The value was 78.905%.

What about the IC50 (bRAF; 10-point CR, top 10 μM) of the same compound?
The IC50 was 138 nM.

What about the “MEAN INHIBITION” value (WEE1; 1 μM, KmATP) of the same compound?
Its value is 60.552%.

What about the IC50 (WEE1; 10-point CR, top 10 μM) of the same compound?
The IC50 was 422 nM.

And the “MEAN INHIBITION” value (ZAK)?
Its value is −1.651%.

And the “MEAN INHIBITION” value (TESK1)?
The value was −10.686%.

And the “MEAN INHIBITION” value (AMPK (A2/B2/G1))?
Its value is −0.942%.

What about the “MEAN INHIBITION” value (MYO3A (MYO3 alpha)) of the same compound?
The value was 10.901%.

What about the “MEAN INHIBITION” value (MASTL) of the same compound?
Its value is 2.020%.

What about the “MEAN INHIBITION” value (MAP2K2 (MEK2)) of the same compound?
Its value is −0.931%.

What about the “MEAN INHIBITION” value (ULK2) of the same compound?
Its value is 0.726%.

And the “MEAN INHIBITION” value (WNK3)?
The value was −2.040%.

And the “MEAN INHIBITION” value (FYN A; 1 μM, KmATP)?
The value was 12.744%.

And the IC50 (FYN A; 10-point CR, top 10 μM)?
Its IC50 is 2410 nM.

And the “MEAN INHIBITION” value (ERN1)?
Its value is 2.657%.

What about the “MEAN INHIBITION” value (TGFBR2) of the same compound?
Its value is 13.412%.

What about the “MEAN INHIBITION” value (TLK1) of the same compound?
The value was −0.646%.

What about the “MEAN INHIBITION” value (ICK; 1 μM, KmATP) of the same compound?
The value was 90.275%.

And the IC50 (ICK; 10-point CR, top 10 μM)?
The IC50 was 80 nM.

What about the “MEAN INHIBITION” value (TAOK1) of the same compound?
Its value is 13.755%.

And the “MEAN INHIBITION” value (WNK2)?
The value was 2.291%.

And the “MEAN INHIBITION” value (STK32B (YANK2))?
Its value is −14.522%.

And the “MEAN INHIBITION” value (MYLK (MLCK))?
The value was −1.187%.

And the “MEAN INHIBITION” value (CDK13 Cyclin K)?
The value was 11.305%.

And the “MEAN INHIBITION” value (TNIK)?
Its value is 4.907%.

And the “MEAN INHIBITION” value (BMPR1A (ALK3); 1 μM, KmATP)?
Its value is 72.857%.

What about the IC50 (BMPR1A (ALK3); 10-point CR, top 10 μM) of the same compound?
Its IC50 is 478 nM.

What about the “MEAN INHIBITION” value (CDK2/Cyclin E1) of the same compound?
Its value is 3.273%.

And the “MEAN INHIBITION” value (MAP3K2 (MEKK2))?
The value was 3.169%.

What about the “MEAN INHIBITION” value (MKNK2 (MNK2)) of the same compound?
Its value is 2.415%.

And the “MEAN INHIBITION” value (ACVR2B; 1 μM, KmATP)?
The value was 102.327%.

And the IC50 (ACVR2B; 10-point CR, top 10 μM)?
The IC50 was 25 nM.

What about the “MEAN INHIBITION” value (VRK2) of the same compound?
The value was −4.440%.

And the “MEAN INHIBITION” value (EPHA3; 1 μM, KmATP)?
The value was 43.400%.

What about the IC50 (EPHA3; 10-point CR, top 10 μM) of the same compound?
Its IC50 is 1090 nM.
